“And” between values parts separate entries of the source, which are not always exact repeats. Equal values may be shown once.
Target: human CB2R (hCB2R) (Homo sapiens, UniProt P34972)
Experiment: Radioligand binding to membranes of CHO cells overexpressing hCB2R
Conditions: for Bmax: CHO-hCB2R membranes; for signal-to-background value: at 250 nM radioligand; for Kd: radioligand on CHO-hCB2R membranes, nonspecific with 10 μM WIN 55,212–2
Protocol: Figure 3 [^3H]-RNB-61 and [^14C]-RNB-61 to label CB2 receptors. (A) Concentration–response of membrane binding of [^3H]-RNB-61 and [^14C]-RNB-61 on CHO cells recombinantly expressing the human CB2R (hCB2R) (n = 4–6, Bmax = 8529 ± 477 cpm, Kd = 3.08 ± 0.61 nM for [^3H]-RNB-61 and Bmax = 76.5 ± 13.9 cpm, Kd = 3.62 ± 2.31 nM for [^14C]-RNB-61). The nonspecific binding was calculated by preincubating the cells with 10 μM of WIN 55,212–2. (B) The top image depicts four representative images of spleen slices incubated in 200 nM of [^14C] RNB-61. Images were acquired using the Typhoon FLA 9500 imaging system. The bottom plot depicts the radioactivity of spleen membrane preparations from either wild-type (WT) rat, WT mouse, or the CB2R knockout mouse strain (n = 6–13 spleen slices of 3 animals for each condition). […] (C) 17 different cell lines (CHO cells, immune cells, neuronal cells, miscellaneous cells) were incubated with 1 nM of [^3H]-RNB-61 and either vehicle or 1 μM of WIN55,212–2. The volcano plot depicts the difference between the vehicle and the WIN-treated cells on the x axis and the negative logarithm of the p-value on the y-axis. Only the hCB2 overexpressing CHO cells and immune cells were statistically significant in CB2R-specific labeling (p < 0.01). No significant labeling was detected in any of the neuronal cell lines (SHSY5Y, Neuro2a, NT18G2). (D) CB2R expression measured in cpm in ex vivo spleen slices from mice challenged with LPS detected with the administration of 200 nM [^14C]RNB-61. The bar chart depicts the specific signal, which was attained by subtracting the nonspecific signal (10 μM of WIN-55,212 co- incubation). LPS induced a statistically significant increase in CB2R expression at various time points (6–24h), which was completely absent in the CB2R KO mice. TEXT PRINTED IN THE PICTURE: (A) [^3H]-RNB-61: Bmax = 8529±477 cpm; Kd = 3.08±0.61 nM | (A) [^14C]-RNB-61: Bmax = 76.5±13.9 cpm; Kd = 3.62±2.31 nM

By UniProt entry, the sequences of proteins in these tests, tags left out.
UniProt P34972, whole entry: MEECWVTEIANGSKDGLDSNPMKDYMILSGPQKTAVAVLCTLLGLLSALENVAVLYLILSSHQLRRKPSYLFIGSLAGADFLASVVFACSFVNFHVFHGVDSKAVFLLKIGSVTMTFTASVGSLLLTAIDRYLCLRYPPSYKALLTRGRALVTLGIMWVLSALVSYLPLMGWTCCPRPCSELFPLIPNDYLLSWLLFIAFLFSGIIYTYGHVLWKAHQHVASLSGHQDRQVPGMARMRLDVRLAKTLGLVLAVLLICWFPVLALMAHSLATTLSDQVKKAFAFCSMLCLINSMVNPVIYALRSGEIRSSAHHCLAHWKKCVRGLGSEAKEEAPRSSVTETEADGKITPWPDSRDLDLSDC

For `CC(C)(O)COc1ccc(C(F)(F)F)cc1C(=O)N=c1cc(C(C)(C)C)n([14CH3])n1CC1CCC1`, which Bmax is on record?
Its Bmax is 76.5 ± 13.9 cpm.

And the signal-to-background value?
The signal-to-background value was 1.6.

And the Kd?
Its Kd is < 4 nM and 3.62 nM.

Which results are given for `[3H]C([3H])([3H])n1c(C(C)(C)C)cc(=NC(=O)c2cc(C(F)(F)F)ccc2OCC(C)(C)O)n1CC1CCC1`?
Bmax: 8529 ± 477 cpm; signal-to-background value: 6.0; Kd: < 4 nM and 3.08 nM
